Marks after values point to notes of the source that are not given here.
System: male Wiga Wistar rats
Assay: Conditioned avoidance response (CAR) test
Conditions: compound administered orally, estimated ED50 (n = 3 per dose; 4-fold separation between doses)

Amino acid sequences for entries named in this document (tags omitted). Residues count along the entry.
UniProt Q14416, 19-872 limits assumed: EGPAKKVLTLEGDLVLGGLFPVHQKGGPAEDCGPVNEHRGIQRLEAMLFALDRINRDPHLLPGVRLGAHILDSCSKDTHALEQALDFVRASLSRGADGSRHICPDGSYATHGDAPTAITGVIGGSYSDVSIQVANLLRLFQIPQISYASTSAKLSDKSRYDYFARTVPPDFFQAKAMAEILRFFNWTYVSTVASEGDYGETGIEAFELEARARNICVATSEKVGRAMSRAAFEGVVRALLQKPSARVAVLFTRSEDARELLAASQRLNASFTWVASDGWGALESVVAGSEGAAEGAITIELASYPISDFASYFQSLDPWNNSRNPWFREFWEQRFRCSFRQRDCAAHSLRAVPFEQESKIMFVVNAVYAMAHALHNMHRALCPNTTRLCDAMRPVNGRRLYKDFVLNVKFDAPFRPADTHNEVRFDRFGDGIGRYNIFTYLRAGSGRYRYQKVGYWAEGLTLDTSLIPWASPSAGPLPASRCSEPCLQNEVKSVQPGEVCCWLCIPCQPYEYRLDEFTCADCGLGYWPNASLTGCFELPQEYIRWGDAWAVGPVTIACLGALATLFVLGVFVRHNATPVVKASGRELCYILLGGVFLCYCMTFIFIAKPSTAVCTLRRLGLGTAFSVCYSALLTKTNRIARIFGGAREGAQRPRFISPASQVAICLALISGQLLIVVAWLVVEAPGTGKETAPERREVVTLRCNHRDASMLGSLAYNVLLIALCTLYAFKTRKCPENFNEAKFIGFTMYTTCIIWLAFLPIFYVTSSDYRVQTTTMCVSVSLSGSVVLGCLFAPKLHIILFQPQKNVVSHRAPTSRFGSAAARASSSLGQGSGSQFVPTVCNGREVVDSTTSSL

SMILES | ED50 CAR-Inh. (estimated)
CCOCc1nnc2c(Cl)c(-c3ccc(Oc4ccnc(C)c4)c(Cl)c3)ccn12 | 20*^a) mg/kg

System: male NMRI mice
Assay: Phencyclidine (PCP)-induced hyperlocomotion in mice
Conditions: PCP 5 mg/kg s.c., criterion total distance <5500 counts, not marked as oral

SMILES | ED50 PCP-Inh. [mg/kg]
Clc1cc(-c2ccn3c(CC4CC4)nnc3c2Cl)ccc1NC1CCOCC1 | 20

Biological target: human mGluR2 receptor (Homo sapiens, UniProt Q14416)
Assay: [35S]GTPγS binding assay (PAM)
Format: biochemical
Conditions: in presence of glutamate at predetermined EC20; membranes from CHO cells transfected with human mGluR2

SMILES | GTPγS -hR2 PAM pEC50
Clc1c(-c2ccc(CN3CCOCC3)cc2)ccn2c(CC3CC3)nnc12 | 5.50
Fc1cc(-c2ccn3c(CC4CC4)nnc3c2C(F)(F)F)ccc1NC1CC1 | 7.55
CCOCc1nnc2c(Cl)c(-c3ccc(Oc4cc(C)nc(C)c4)c(F)c3)ccn12 | 6.11
CCOCc1nnc2c(C(F)(F)F)c(-c3ccc(Oc4ccnc(C)c4)c(Cl)c3)ccn12 | 7.35
Clc1c(-c2ccc(N3CCOCC3)cc2)ccn2c(CC3CC3)nnc12 | 5.53
COc1ccc(CNc2ccc(-c3ccn4c(CC5CC5)nnc4c3C(F)(F)F)cc2F)cn1 | 8.3
FC1(F)CCN(Cc2ccc(-c3ccn4c(CC5CC5)nnc4c3C(F)(F)F)cc2Cl)C1 | 7.39
Cc1ccc(Oc2ccc(-c3ccn4c(CC5CC5)nnc4c3Cl)cc2Cl)c(C)n1 | 7.91
Fc1cc(-c2ccn3c(CC4CC4)nnc3c2Cl)ccc1Oc1ccnc(C2CC2)c1 | 7.06
CCOCc1nnc2c(Cl)c(-c3ccc(Oc4ccnc(C)c4)c(Cl)c3)ccn12 | 6.55
Cc1ccc(Oc2ccc(-c3ccn4c(CC5CC5)nnc4c3C)cc2F)c(C)n1 | 7.11
Clc1cc(-c2ccn3c(CC4CC4)nnc3c2Cl)ccc1NC1CCOCC1 | 6.82
Cc1cc(Oc2ccc(-c3ccn4c(CC5CC5)nnc4c3C(F)(F)F)cc2Cl)ccn1 | 7.83
CCc1cc(Oc2ccc(-c3ccn4c(CC5CC5)nnc4c3C(F)(F)F)cc2F)ccn1 | 7.44
FC(F)(F)Cc1nnc2c(Cl)c(-c3ccc(Oc4ccccc4)cc3)ccn12 | 7.34
FC(F)(F)c1c(-c2ccc(N3CCOCC3)c(Cl)c2)ccn2c(CC3CC3)nnc12 | 7.15
Cc1ccc(Oc2ccc(-c3ccn4c(CC5CC5)nnc4c3C3CC3)cc2F)c(C)n1 | 7.40

Same assay, conditions: in presence of glutamate at predetermined EC20; membranes from CHO cells transfected with human mGluR2; tested form: HCl

SMILES | GTPγS -hR2 PAM pEC50
FC1(F)CCN(Cc2ccc(-c3ccn4c(CC5CC5)nnc4c3C(F)(F)F)cc2)C1 | 6.51

Source: patent US8716480B2, “7-aryl-1,2,4-triazolo[4,3-a]pyridine derivatives and their use as positive allosteric modulators of mGluR2 receptors” (Janssen Pharmaceuticals, Inc., priority 2009, dated 2014)
